Patent publication EP1614683B1, “Indazole compounds and pharmaceutical compositions for inhibiting protein kinases, and methods for their use” (priority 1999, dated 2001)

Experiments:
[1] = test system: lung cancer cells (line MV522); assay: Cancer cell proliferation (MV522) assay; type: cell-based; details: MV522, read-out: MV522 IC50 (µM)

For `O=C(NCc1cccc(F)c1)c1ccccc1Sc1ccc2c(/C=C/c3ccccn3)n[nH]c2c1` [35 (ff)], which T1/2 (mouse, in vivo, ip, 25 mg/kg, pH 2.3) is on record?
Its T1/2 is 1.7 h.

What does the source list for `O=C(Nc1cccc(Oc2ccc3c(/C=C/c4c[nH]cn4)n[nH]c3c2)c1)c1ccccc1` [Reference Example 32(a), 6-[3-benzamidophenoxy]-3-E-[2-(1H-imidazol-4-yl)ethenyl]-1H-indazole]?
T1/2 (IP, 25 mg/kg, vehicle PEG400:H2O pH 2.3 30:70): 3.7 h; T1/2 (PO, 50 mg/kg, vehicle PEG400:H2O pH 2.3 30:70): 1.1 h

With `Cc1ccc2cc(NC(=O)c3ccccc3Sc3ccc4c(/C=C/c5ccccn5)n[nH]c4c3)ccc2n1` [Reference Example 33(b)] as the molecule, how does the IC50 [1] read?
The IC50 was 15 µM.

Which IC50 [1] does the source give for `Cc1ccc2cc(NC(=O)c3ccccc3Sc3ccc4c(/C=C/c5ccccc5)n[nH]c4c3)ccc2n1` [Reference Example 38(a), 6-[2-(2-Methylquinol-6-ylcarbamoyl)phenylsulfanyl]-3-E-(2-styryl)-1H-indazole] here?
Its IC50 is 10.7 µM.

Like-named read-outs stand apart in the source and are kept apart here.
